The values that follow come from PMC3795654, “Combinatorial Optimization of Cystine-Knot Peptides towards High-Affinity Inhibitors of Human Matriptase-1” (PLoS ONE, 2013).

Amino acid sequences for entries named in this document (tags omitted). Residues count along the entry.
UniProt P00760, 24-246 limits assumed: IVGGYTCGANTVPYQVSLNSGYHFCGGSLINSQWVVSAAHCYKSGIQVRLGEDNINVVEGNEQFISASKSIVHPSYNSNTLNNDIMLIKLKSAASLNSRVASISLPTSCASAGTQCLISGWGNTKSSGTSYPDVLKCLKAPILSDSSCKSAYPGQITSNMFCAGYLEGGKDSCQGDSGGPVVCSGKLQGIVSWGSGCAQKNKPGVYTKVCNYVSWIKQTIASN
UniProt Q9Y5Y6, 615-855 limits assumed: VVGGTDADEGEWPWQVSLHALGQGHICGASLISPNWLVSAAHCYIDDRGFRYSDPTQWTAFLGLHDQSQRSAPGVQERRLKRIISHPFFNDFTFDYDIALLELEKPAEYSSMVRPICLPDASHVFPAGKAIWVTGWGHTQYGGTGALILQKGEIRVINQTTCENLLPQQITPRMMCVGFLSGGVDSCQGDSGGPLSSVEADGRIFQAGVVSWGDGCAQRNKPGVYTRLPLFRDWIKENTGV

Assay [1] concerns uPA activation by matriptase-1 on the surface of PC-3 cells. In words: Cell inhibition assay: uPA activation by matriptase-1 on the surface of PC-3 cells. In kind it is cell-based, human.
In assay [2] the target is Bovine pancreatic trypsin (Bos taurus, UniProt P00760). In words: Trypsin inhibition assay (substrate-independent Ki). The note with it: read-out: Ki (Trypsin); substrate-independent Ki from Ki app (Morrison equation) and Km; 250 µM substrate; preincubation 30 min RT; read over 30 min; triplicate. As for the experimental part: Human matriptase-1 was produced recombinantly, autocatalytically activated and purified as previously reported, [49], [51], [60]. Bovine pancreatic trypsin, thrombin and uPA were purchased from Sigma-Aldrich and Hepsin from R&D Systems.
Measurements were carried out in triplicate using a Tecan Genios ELISA reader. The normalized residual proteolytic activity (v/v0) of proteases was determined using substrates Boc-QAR-pNA (250 µM, (pNA stands for para-nitro aniline), Boc-QAR-AMC (250 µM, AMC stands for amino-methyl coumarin) or Spectrozym tPA (250 µM, American Diagnostica, CH3SO2-D-CHT-Gly-Arg-pNA AcOH). Product formation was monitored after preincubation (30 min, RT) with inhibitor at different concentrations over 30 min by measuring the absorbance at 405 nm for pNA substrates or the fluorescence emission for AMC substrates (ex. 360 nm, em. 465 nm), respectively. Selectivity data were carried out in duplicates with final protease concentrations of uPA and thrombin of 5 nM. In case of hepsin 50 mM Tris/HCl pH 9.0 was used as assay buffer.
Apparent inhibition constants (Ki ^app) were calculated by fitting the Morrison equation (1) for tight-binding inhibitors to the relative reaction velocity using non-linear regression (Marquardt-Levenberg algorithm, Sigma Plot 11). […]
Substrate-independent inhibition constants Ki were calculated from Ki ^app and Km of the enzyme according to (2). […]

A further assay concerns the target matriptase-1. The note with it: cited from earlier work.
Another assay has as its target Human matriptase-1 (Homo sapiens, UniProt Q9Y5Y6). In words: Matriptase-1 inhibition assay (Ki / Ki app). The note with it: read-out: Ki (Matriptase-1); substrate-independent Ki from Ki app (Morrison equation) and Km; 250 µM substrate; preincubation 30 min RT; read over 30 min; triplicate.

On to `N=C(N)c1cccc(C[C@H](NS(=O)(=O)c2cccc(NC(=O)CCN)c2)C(=O)N2CCC(CCN)CC2)c1`, for which the IC50 in assay [1] (1×10^5 PC-3 cells, 250 µM Bz-β-Ala-Gly-Arg-pNA, overnight, absorbance 405 nm, Figure 4) worked out at 2820 nM. Also, the “IC50 relative to MCoTI-based inhibitor Var. 4” value in assay [1] (PC-3 cells, uPA activation assay) is “tenfold higher”. For the same molecule, the Ki in assay [2] is 118 nM; on Human matriptase-1 it was 7.1 nM. Further, the “Ki (matriptase-1)” value at matriptase-1 is “single digit nanomolar range”.
With `N=C(N)c1cccc(C[C@H](NS(=O)(=O)c2ccc(C3CCCCC3)cc2)C(=O)N2CCC(C(=O)N3CCN(C(=N)N)CC3)CC2)c1`, the Ki in assay [2] stood at 544 nM; at Human matriptase-1, 28.2 nM.

A word on the IC50: it is the concentration that inhibits the measured activity by half. A higher IC50 goes with weaker potency.
